# Results reported in PubChem BioAssay AID693 (University of Pittsburgh Molecular Library Screening Center, 2007).
# By UniProt entry, the sequences of proteins in these tests, tags left out.
# UniProt P53350, whole entry: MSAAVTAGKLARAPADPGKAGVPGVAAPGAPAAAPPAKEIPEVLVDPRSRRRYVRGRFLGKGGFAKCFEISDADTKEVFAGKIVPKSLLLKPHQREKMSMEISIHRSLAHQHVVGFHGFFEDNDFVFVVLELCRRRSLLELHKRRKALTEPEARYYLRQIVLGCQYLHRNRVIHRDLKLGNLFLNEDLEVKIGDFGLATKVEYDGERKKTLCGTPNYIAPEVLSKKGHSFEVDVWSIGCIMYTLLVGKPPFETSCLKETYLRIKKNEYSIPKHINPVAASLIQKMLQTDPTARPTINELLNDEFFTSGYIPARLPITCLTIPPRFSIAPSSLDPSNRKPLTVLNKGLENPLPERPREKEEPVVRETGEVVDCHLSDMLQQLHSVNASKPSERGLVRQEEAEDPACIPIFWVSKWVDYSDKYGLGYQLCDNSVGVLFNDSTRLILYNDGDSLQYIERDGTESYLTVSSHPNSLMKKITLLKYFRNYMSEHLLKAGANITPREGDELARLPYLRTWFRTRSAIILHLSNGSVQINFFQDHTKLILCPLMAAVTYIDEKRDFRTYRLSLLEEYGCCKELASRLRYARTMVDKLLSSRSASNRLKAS
# This is a selection; strong and weak results do not stand in their true shares. Activity calls are given as the source filed them. No stated cut-off is given here; in the data, active means inhibition above about 34% (passing the limit was not always enough); inactive means the rest.
# Biological target: Serine/threonine-protein kinase PLK1 (Homo sapiens) (UniProt P53350)
# Assay: Plk1 polo box domain binding inhibitors, primary screen, biochemical, fluorescence polarization (AID 693)
# Details: Plk1 PBD phosphopeptide binding, stronger effect = higher value,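 tested at about 20 µM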
row,Structure (SMILES),inhibition
1,COc1ccccc1OP(C)(=O)Nc1ccc(C)c(C)c1 (centres undefined),inactive: 1.75%
2,Cc1nc2ccc3ccccc3c2o1.O=[N+]([O-])c1cc([N+](=O)[O-])c(O)c([N+](=O)[O-])c1,inactive: 2.24%
3,COc1ccc(OP(C)(=O)Nc2ccccn2)cc1 (centres undefined),inactive: 4.79%
4,CN(C)CCOC(=O)C(O)(c1ccccc1)C1CCCC1 (centres undefined),inactive: -6.36%
5,COc1ccccc1OP(C)(=O)Nc1ccc(C)cc1C (centres undefined),inactive: -22%
6,CP(=O)(Nc1ccccn1)Oc1ccccc1 (centres undefined),inactive: 34.4%
7,Cc1c(NP(C)(=O)Oc2ccc(C(C)C)cc2)c(=O)n(-c2ccccc2)n1C (centres undefined),inactive: -3.88%
8,COc1ccccc1OP(C)(=O)Nc1c(C)n(C)n(-c2ccccc2)c1=O (centres undefined),inactive: 0.00446%
9,CP(=O)(Oc1ccccc1)N1CCOC1=O (centres undefined),inactive: 3%
10,CCN(CC)CC(O)COC(=O)C(O)(c1ccccc1)C1CCCCC1 (centres undefined),inactive: 13.3%
11,CC(C)(C)c1ccc(OP(C)(=O)O)cc1,inactive: 17.1%
12,CP(=O)(Nc1ccc(Cl)cc1)Oc1ccc(F)cc1 (centres undefined),inactive: -1.01%
13,CP(=O)(OC12CC3CC(CC(C3)C1)C2)OC12CC3CC(CC(C3)C1)C2,inactive: 20.3%
14,CN(C)CCOC(=O)C(O)(c1ccccc1)C1CCCCC1 (centres undefined),inactive: 1.01%
15,COc1ccc(OP(C)(=O)Nc2cccc(Br)c2)cc1 (centres undefined),inactive: -30.6%
16,CCOP(C)(=S)SCC(=O)NC(C)(CC)C(=O)O (centres undefined),inactive: 2.07%
17,CP(=O)(Nc1ccc2c(c1)OCCO2)Oc1ccccc1 (centres undefined),inactive: 23%
18,CP(=O)(Nc1ccccc1F)Oc1ccccc1 (centres undefined),inactive: 7.89%
19,CP(=O)(Nc1ccccc1)Oc1ccc(F)cc1 (centres undefined),inactive: -4.19%
20,CCN(CC)CCCOC(=O)C(O)(c1ccccc1)C1CCCCC1 (centres undefined),inactive: -10.8%
21,Cc1cc(C)cc(OP(C)(=O)Nc2ccc(C)cc2C)c1 (centres undefined),inactive: 0.74%
22,Cc1ccc(C)c(NP(C)(=O)Oc2ccccc2)c1 (centres undefined),inactive: 7.76%
23,Cc1cc(C)cc(OP(C)(=O)Nc2ccccn2)c1 (centres undefined),inactive: -9.01%
24,Cc1nc2ccc3ccccc3c2s1.O=[N+]([O-])c1cc([N+](=O)[O-])c(O)c([N+](=O)[O-])c1,inactive: 7.54%
25,COc1ccccc1OP(C)(=O)Nc1c(C)cccc1C (centres undefined),inactive: -5.92%
26,CP(=S)(Nn1cnnc1)Oc1ccccc1 (centres undefined),inactive: 16.4%
27,CP(=O)(NC(=O)Nc1ccccc1)Oc1ccccc1 (centres undefined),inactive: -6.21%
28,CP(=O)(Nc1ccccn1)Oc1ccc(Cl)cc1 (centres undefined),inactive: -0.27%
29,COc1ccc(OP(C)(=O)Nc2cccc(F)c2)cc1 (centres undefined),inactive: 0.5%
